# According to article PMC3565472 (Journal of molecular modeling, 2012):
# Target: T1, recombinant human HDAC8 (Homo sapiens, UniProt Q9BY41)
# T1 sequence (Q9BY41 1-377): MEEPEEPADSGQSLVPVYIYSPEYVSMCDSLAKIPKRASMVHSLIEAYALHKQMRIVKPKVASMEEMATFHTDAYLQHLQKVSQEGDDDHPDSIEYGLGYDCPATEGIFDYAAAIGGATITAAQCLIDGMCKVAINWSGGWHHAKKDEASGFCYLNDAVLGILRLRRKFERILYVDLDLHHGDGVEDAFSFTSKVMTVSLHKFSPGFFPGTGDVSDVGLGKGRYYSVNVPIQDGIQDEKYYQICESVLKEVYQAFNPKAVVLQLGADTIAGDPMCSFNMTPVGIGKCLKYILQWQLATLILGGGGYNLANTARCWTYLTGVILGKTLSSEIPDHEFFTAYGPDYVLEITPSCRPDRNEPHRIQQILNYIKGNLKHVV
# Experiment: HDAC8 inhibition, fluorescent acetylated substrate Fluor de Lys
# Type: biochemical
# Conditions: HDAC8 inhibitors used in this study
compound,measurement,value
"O=C(CCCCCCC(=O)Nc1ccccc1)NO [1a, suberoyl anilide hydroxamic acid]",Ki,395 nM
